Results on one substance are retold here after patent US9988406B2, “Forms of R)-3-(4-(2-(2-methyltetrazol-5-yl)pyridin-5-yl)-3-fluorophenyl)-5-hydroxymethyl oxazolidin-2-one dihydrogen phosphate” (Merck Sharp & Dohme Corp., priority 2009, dated 2018).

For the series the following is noted: crystals after filtering and drying; pH=3.2 of the saturated solution.

In general, aqueous solubility refers to how much of the substance goes into solution per volume. High values mean much dissolved substance, low ones little dissolved substance. Substance “(R)-3-(4-(2-(2-methyltetrazol-5-yl)pyridin-5-yl)-3-fluorophenyl)-5-hydroxymethyl oxazolidin-2-one dihydrogen phosphate [free acid]” showed an aqueous solubility of 0.1 mg/mL.
